Drawing on patent US20030095958A1, “Inhibitors of bace” (priority 2001, published 2003), this text covers Ki for one molecule.

Sequences of proteins named here, by UniProt entry; tags and fusion partners are left off. Residues count along the entry.
UniProt P56817, 46-501 limits assumed: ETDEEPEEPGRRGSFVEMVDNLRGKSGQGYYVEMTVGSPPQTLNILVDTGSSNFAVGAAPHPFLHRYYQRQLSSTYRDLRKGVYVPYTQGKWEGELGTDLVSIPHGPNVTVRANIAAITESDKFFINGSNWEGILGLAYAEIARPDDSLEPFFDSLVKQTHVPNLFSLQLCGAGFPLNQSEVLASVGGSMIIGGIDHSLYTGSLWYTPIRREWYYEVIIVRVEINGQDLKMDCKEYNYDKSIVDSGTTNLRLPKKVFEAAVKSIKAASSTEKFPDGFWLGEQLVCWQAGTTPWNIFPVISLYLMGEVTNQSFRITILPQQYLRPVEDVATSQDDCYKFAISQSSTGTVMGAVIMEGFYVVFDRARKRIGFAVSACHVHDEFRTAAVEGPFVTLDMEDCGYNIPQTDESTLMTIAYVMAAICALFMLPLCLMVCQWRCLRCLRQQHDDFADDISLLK

Structures are written as SMILES.

This assay concerns the target BACE (Homo sapiens, UniProt P56817). The assay can be described thus: Ki Determination for the Inhibition of BACE (FS-1 peptide fluorescence cleavage assay). Particulars: apparent Ki; 50 nM BACE, 10 μM FS-1 substrate, 0.1M sodium acetate pH 4.5. How it is done:
Compounds were tested against BACE activity using the following modifications of the method described in J. Ermolieff et al. (2000) Biochemistry 39(51):16263.
All compound evaluations were performed in 0.1M sodium acetate (buffer), pH, 4.5, 10 μM substrate (FS-1 peptide as described in the reference above; this is commercially available), varying concentrations of the test compound or control (DMSO to yeild 2% vol/vol), and 50 nM BACE. The assay volume is 100 μL.
Two microliters of the test compound dissolved in DMSO are added to each well in a 96-well microtiter plate. Seventy eight microliters of BACE are mixed with buffer and added to each well then incubated at room temperature for 15 minutes. A stock solution of 50 μM FS-1 substrate was prepared by addition of an aliquot of FS-1 substrate which was dissolved in DMSO to the buffer and mixed well. The reaction is initiated by addition of 20 μL of the FS-1 mix to the remaining, preincubated assay components. The cleavage reaction of substrate to product is measured using a Molecular Devices fluorescence plate reader with the excitation and emission filter pairs of 355 nm and 495 nm, respectively. Apparent Ki values are determined by fitting the data to the integrated equation for competitive tight binding inhibition.

As for `CC(NC(=O)C1CNCCC1c1ccc(-c2ccccc2)cc1)c1ccc2ccccc2c1` (single isomer, unassigned), the Ki lay in the range of 3 to 30 µM.
